# Patent US20250243260A1 (ALPINE IMMUNE SCIENCES, published 2025)
# Amino acid sequences for entries named in this document (tags omitted). Residues count along the entry.
# UniProt P16410, 36-223: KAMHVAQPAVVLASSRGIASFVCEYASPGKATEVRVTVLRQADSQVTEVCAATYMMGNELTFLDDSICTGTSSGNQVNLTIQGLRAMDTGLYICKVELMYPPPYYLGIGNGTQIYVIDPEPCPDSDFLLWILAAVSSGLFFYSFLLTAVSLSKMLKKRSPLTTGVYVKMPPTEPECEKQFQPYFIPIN
# B1: IgG4 Fc Control (other)
# chain: ESKYGPPCPPCPAPEFLGGPSVFLFPPKPKDTLMISRTPEVTCVVVDVSQEDPEVQFNWYVDGVEVHNAKTKPREEQFNSTYRVVSVLTVLHQDWLNGKEYKCKVSNKGLPSSIEKTISKAKGQPREPQVYTLPPSQEEMTKNQVSLTCLVKGFYPSDIAVEWESNGQPENNYKTTPPVLDSDGSFFLYSRLTVDKSRWQEGNVFSCSVMHEALHNHYTQKSLSLSLG
# notes: Human IgG4 Fc with S228P, no CD80 domain; also called Fc-only negative control; negative control Fc alone
# B2: IgG4 Fc Control (human IgG4 Fc S228P alone) (other)
# chain: ESKYGPPCPPCPAPEFLGGPSVFLFPPKPKDTLMISRTPEVTCVVVDVSQEDPEVQFNWYVDGVEVHNAKTKPREEQFNSTYRVVSVLTVLHQDWLNGKEYKCKVSNKGLPSSIEKTISKAKGQPREPQVYTLPPSQEEMTKNQVSLTCLVKGFYPSDIAVEWESNGQPENNYKTTPPVLDSDGSFFLYSRLTVDKSRWQEGNVFSCSVMHEALHNHYTQKSLSLSLG
# notes: negative control, Fc alone; also called Fc-only negative control
# B3: IgG4 Fc Control (other)
# chain: ESKYGPPCPPCPAPEFLGGPSVFLFPPKPKDTLMISRTPEVTCVVVDVSQEDPEVQFNWYVDGVEVHNAKTKPREEQFNSTYRVVSVLTVLHQDWLNGKEYKCKVSNKGLPSSIEKTISKAKGQPREPQVYTLPPSQEEMTKNQVSLTCLVKGFYPSDIAVEWESNGQPENNYKTTPPVLDSDGSFFLYSRLTVDKSRWQEGNVFSCSVMHEALHNHYTQKSLSLSLG
# notes: Negative control; also called negative control Fc alone
# B4: IgG4 Fc Control (other)
# chain: ESKYGPPCPPCPAPEFLGGPSVFLFPPKPKDTLMISRTPEVTCVVVDVSQEDPEVQFNWYVDGVEVHNAKTKPREEQFNSTYRVVSVLTVLHQDWLNGKEYKCKVSNKGLPSSIEKTISKAKGQPREPQVYTLPPSQEEMTKNQVSLTCLVKGFYPSDIAVEWESNGQPENNYKTTPPVLDSDGSFFLYSRLTVDKSRWQEGNVFSCSVMHEALHNHYTQKSLSLSLG
# notes: negative control; also called Fc-only negative control
# B5: IgG4 Fc Control (other)
# chain: ESKYGPPCPPCPAPEFLGGPSVFLFPPKPKDTLMISRTPEVTCVVVDVSQEDPEVQFNWYVDGVEVHNAKTKPREEQFNSTYRVVSVLTVLHQDWLNGKEYKCKVSNKGLPSSIEKTISKAKGQPREPQVYTLPPSQEEMTKNQVSLTCLVKGFYPSDIAVEWESNGQPENNYKTTPPVLDSDGSFFLYSRLTVDKSRWQEGNVFSCSVMHEALHNHYTQKSLSLSLG
# notes: Negative control, Fc alone; also called Fc-only negative control
# Tests used:
# [1] = molecular target: T1, human PD-L1 (human); assay: flow cytometry, SCC152 cells transduced with human PD-L1, anti-human Fc detection
# T1 construct: whole, on cells
# Description: (§1) Binding affinity to CD28 was determined using primary human T cells which endogenously express CD28. Binding to PD-L1 was determined using SCC152 cells transduced with human PD-L1. Binding to CTLA-4 was measured using Chinese hamster ovary (CHO) cells stably transduced to express human CTLA-4.
# (§2) For staining and analysis by flow cytometry, 75,000 human T cells, SCC152/PD-L1 cells, or CHO/CTLA-4 cells were plated in 96-well round-bottom plates. Cells were spun down and resuspended in staining buffer (PBS (phosphate buffered saline), 1% BSA (bovine serum albumin), 1 mM EDTA, and 0.1% sodium azide) for 20 minutes to block non-specific binding. Afterwards, cells were centrifuged, stain buffer aspirated, and then resuspended in 50 μL of a 1:5 serial dilution of each CD80-Fc candidate variant starting at 100 nM ending at 0.8 nM. Primary staining was performed on ice for 60 minutes, before washing cells in […] staining buffer three times. PE-conjugated anti-human Fc (Jackson ImmunoResearch, USA) was diluted 1:250 in 50 μL staining buffer and added to cells and incubated another 30 minutes at 4° C. Cells were washed two times in 150 μL stain buffer and then fixed in 2% formaldehyde/PBS for 5 minutes at room temperature. Samples were analyzed CytoFLEX LX flow cytometer (Beckman Coulter, USA). Median Fluorescence Intensity (MFI) was calculated for each cell type using the CytExpert software from Beckman Coulter.
# (§3) Binding assays were carried out to assess the specificity and affinity of multivalent proteins to cell-expressed CTLA-4, CD28, and PD-L1 counter structures.
# [2] = molecular target: T1, human PD-L1; assay: flow cytometry, SCC152 cells transduced with human PD-L1; MFI against WT CD80 ECD-Fc
# Description: as §1
# as §2, with “Cells were washed two times in 150 μL stain buffer and then fixed in 2% formaldehyde/PBS for 5 minutes at room temperature.” left out, “Coulter. […]” for “Coulter.”
# [3] = molecular target: CD28 on Jurkat/IL2-reporter cells (UniProt P10747); assay: cell-based or functional assay
# [4] = molecular target: T2, human CD28 (endogenously expressed on primary human T cells) (human, UniProt P10747); assay: flow cytometry, primary human T cells
# T2 construct: whole, on cells
# Description: as §1, §2
# [5] = molecular target: T3, human CTLA-4 (human, UniProt P16410, in part); assay: flow cytometry on CHO/CTLA-4 cells
# T3 construct: whole, on cells; also called CHO/CTLA-4 cells
# Description: as §1, §2
# [6] = molecular target: T4, human PD-L1 (human); assay: flow cytometry, SCC152/PD-L1 cells
# T4 construct: whole, on cells; also called SCC152/PD-L1 cells
# Description: as §1, §2
# [7] = molecular target: T5, human CTLA-4 on CHO cells (human, UniProt P16410, in part); assay: flow cytometry, CHO/CTLA-4 cells
# T5 construct: whole, on cells; also called CHO/CTLA-4
# Description: as §1, §2, §3
# [8] = molecular target: T6, human CD28 on cells (human, UniProt P10747); assay: flow cytometry, primary human T cells
# T6 construct: whole, on cells
# Description: as §1, §2, §3
# [9] = molecular target: T6, human CD28 on cells; assay: cell-based or functional assay
binder,measurement,setting,value
B1,Anti-Human Fc (MFI) at 0.8 nM,[1],650 MFI
same,Anti-Human Fc (MFI) at 4 nM,[1],636 MFI
same,Anti-Human Fc (MFI) at 20 nM,[1],652 MFI
same,Anti-Human Fc (MFI) at 100 nM,[1],694 MFI
same,Fold change vs WT CD80 @20 nM,[2],1 fold
same,Fold Increase over WT at 50 nM,[3],0.89 fold
same,Rel. Luminescence Units (RLU) 2 nM,[3],2380 RLU
same,Rel. Luminescence Units (RLU) 10 nM,[3],2560 RLU
same,Rel. Luminescence Units (RLU) 50 nM,[3],2160 RLU
same,Rel. Luminescence Units (RLU) 250 nM,[3],2190 RLU
B2,MFI (anti-human Fc) at 0.8 nM,[4],189 MFI
same,MFI (anti-human Fc) at 4 nM,[4],167 MFI
same,MFI (anti-human Fc) at 20 nM,[4],170 MFI
same,MFI (anti-human Fc) at 100 nM,[4],172 MFI
same,fold change of MFI vs WT CD80 at 20 nM,[4],0.9 fold
B3,MFI at 0.8 nM,[5],303 MFI
same,MFI at 4 nM,[5],312 MFI
same,MFI at 20 nM,[5],305 MFI
same,fold change vs WT CD80 at 20 nM,[5],0 fold
B4,Anti-Human Fc (MFI) at 0.8 nM,[6],650 MFI
same,Anti-Human Fc (MFI) at 4 nM,[6],636 MFI
same,Anti-Human Fc (MFI) at 20 nM,[6],652 MFI
same,Anti-Human Fc (MFI) at 100 nM,[6],694 MFI
same,Fold change vs WT CD80 @20 nM,[6],1 fold
B5,Anti-Human Fc (MFI) at 0.8 nM,[7],303 MFI
same,Anti-Human Fc (MFI) at 4 nM,[7],312 MFI
same,Anti-Human Fc (MFI) at 20 nM,[7],305 MFI
same,Anti-Human Fc (MFI) at 100 nM,[7],303 MFI
same,Fold change vs WT CD80 @20 nM,[7],0 fold
same,Anti-Human Fc (MFI) at 0.8 nM,[8],189 MFI
same,Anti-Human Fc (MFI) at 4 nM,[8],167 MFI
same,Anti-Human Fc (MFI) at 20 nM,[8],170 MFI
same,Fold change vs WT CD80 @20 nM,[8],0.9 fold
same,Fold Increase over WT at 50 nM,[9],0.89 fold
same,"Rel. Luminescence Units (RLU) at 2 nM, K562/OKT3/PD-L1 + Jurkat/IL-2 reporter",[9],2380 RLU
same,"Rel. Luminescence Units (RLU) at 10 nM, K562/OKT3/PD-L1 + Jurkat/IL-2 reporter",[9],2560 RLU
same,"Rel. Luminescence Units (RLU) at 50 nM, K562/OKT3/PD-L1 + Jurkat/IL-2 reporter",[9],2160 RLU
same,"Rel. Luminescence Units (RLU) at 250 nM, K562/OKT3/PD-L1 + Jurkat/IL-2 reporter",[9],2190 RLU
